Numbering of substitutions follows the chain as printed. Names may count otherwise.
Target: T1, Nectin-3 (human, UniProt Q9NQS3 58-549)
T1 construct: whole, on cells; Plasma membrane, non-tethered secreted and tethered secreted forms in the library
Assay: cell microarray on HEK293 cells, pooled compounds
Experimental: Initially, two pools of compounds were tested. Pool #1 consisted of C190, C197, and C208, and pool #2 consisted of C247, C253, and C259 at 2 μg/mL for each molecule. To perform this assay, HEK293 cells were plated on a dish and localized spots of cells were transiently over-expressed with a single cDNA encoding for GFP and one of the 6,416 targets. Included in this library were multiple clones for the Nectin family members, including plasma membrane, non-tethered secreted, and tethered secreted forms of Nectin-1, 2, 3, and 4. Secreted protein targets were tethered to the plasma membrane to aid in detection. The molecule pools were incubated on the fixed, over-expressing cell microarrays (n=2 per protein), and binding was visualized using Alexa Fluor 647 streptavidin fluorescence. All transfection efficiencies exceeded minimum thresholds for the microarray expression targets. In total, 18 library preliminary interactions (including some target clone duplicates) were identified, including Nectin-4, but no other Nectin family members were identified.

Chains of the proteins cited; added tags and fusions are not shown. Residues count along the entry.
UniProt Q9NQS3, 58-549: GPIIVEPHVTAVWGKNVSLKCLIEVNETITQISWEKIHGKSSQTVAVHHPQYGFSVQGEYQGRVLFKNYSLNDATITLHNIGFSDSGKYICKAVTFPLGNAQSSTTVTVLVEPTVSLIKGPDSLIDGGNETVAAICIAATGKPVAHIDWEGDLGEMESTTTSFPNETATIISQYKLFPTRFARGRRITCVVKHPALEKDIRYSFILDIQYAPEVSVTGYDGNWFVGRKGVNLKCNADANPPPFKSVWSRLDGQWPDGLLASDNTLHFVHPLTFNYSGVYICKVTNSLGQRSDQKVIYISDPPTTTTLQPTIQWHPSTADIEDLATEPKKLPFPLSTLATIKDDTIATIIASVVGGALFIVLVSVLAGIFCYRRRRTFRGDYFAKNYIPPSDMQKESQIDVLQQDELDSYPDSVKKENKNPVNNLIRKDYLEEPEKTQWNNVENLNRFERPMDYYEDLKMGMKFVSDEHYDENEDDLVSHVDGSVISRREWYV

B1: C208 (designed binder)
chain: CDYDEQFFTALKRLRGADICEYIQASFQYLPGECIEEILDNLGCS
modifications: N-term Biotin-PEG4
binding result: no binding (tested: 2 µg/mL)

B2: C190 (designed binder)
chain: B1 chain with A17G, E33L
modifications: N-term Biotin-PEG4
binding result: no binding (tested: 2 µg/mL)

B3: C247 (designed binder)
chain: B1 chain with K12A
modifications: N-term Biotin-PEG4
binding result: no binding (tested: 2 µg/mL)

B4: C197 (designed binder)
chain: B1 chain with D2E, A17D, E21D, E33L
modifications: N-term Biotin-PEG4
binding result: no binding (tested: 2 µg/mL)

B5: C253 (designed binder)
chain: CEYDEEFFTALARLRGGDICQYIQAKFQYLPALCIEEILDNLGCS
modifications: N-term Biotin-PEG4; Kme3 at 26
binding result: no binding (tested: 2 µg/mL)

Source: patent US20260151519A1 (AKTIS ONCOLOGY, published 2026)
